Test results: patent EP0903346A1, “SYDNONE IMINE DERIVATIVES” (Chugai Seiyaku Kabushiki Kaisha, priority 1995, dated 1997)

System: isolated rat aorta
Experiment: Test with the use of isolated rat aorta (relaxation of potassium chloride contraction)
Settings: read-out: Rat aorta IC50
Description: The thoracic aorta was taken out from male Sprague Dawley rats weighing 450 to 600 g and cut into circular samples of 2 mm in width. […] The contraction reactions of the samples were isometrically recorded with FD pick-up. After 1 to 1.5 hours of equilibration, 30 mM potassium chloride was added to contract the tissue. […] As the test compounds, the invention compounds obtained in the above Examples were employed.

**Q.** How did the IC50 turn out when `CC(=O)SC[C@@H](C)C(=O)[N-]c1c[n+](N2CCN(CCSc3cc(C(C)(C)C)c(O)c(C(C)(C)C)c3)CC2)no1` [Example 44, N-((S)-3-(Acetylthio)isobutyryl)-3-(4-(2-(3,5-di-t-butyl-4-hydroxyphenylthio)ethyl)piperazin-1-yl)sydnonimine] was run?
**A.** Its IC50 is 980 nM.
